{"source": "the OPERA property sets (Mansouri et al. 2018)", "settings": "experimental values compiled from the literature"}
{"molecule": "CC(C)OP(=O)(F)OC(C)C", "values": [{"measurement": "solubility", "result": 83.6, "unit": "mM"}]}
